Measured values published in patent publication US20240139185A1, “COMPOUNDS THAT PARTICIPATE IN COOPERATIVE BINDING AND USES THEREOF” (Revolution Medicines, Inc., priority 2018, published 2024).

By UniProt entry, the sequences of proteins in these tests, tags left out. Where a name states a change or a piece, a line headed by the entry shows the natural chain unless it says otherwise.
UniProt P62937, whole entry, stated change not applied: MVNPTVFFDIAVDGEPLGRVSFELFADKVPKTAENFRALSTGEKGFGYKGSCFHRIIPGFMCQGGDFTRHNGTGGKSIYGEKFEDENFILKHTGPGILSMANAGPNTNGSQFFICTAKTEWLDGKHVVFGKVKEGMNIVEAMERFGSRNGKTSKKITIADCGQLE

Assays:
[1] = target: KRAS-G12C (Homo sapiens, UniProt P01116+P62937, G12C); experiment: Percentage of crosslinking to KRAS-G12C in the presence of BME and CYPA (TOF-MS); settings: compound 2 μM, CypA 5 μM, G12C-GMPNP 0.5 μM, BME
Description: • 1. 10×Incubation buffer: 125 mM HEPES pH 7.4, 750 mM NaCl, 10 mM MgCl2 • 2. 50 μM Protein A stock (CypA) in incubation buffer • 3. 5 μM Protein B (G12C-GMPNP) stock in incubation buffer • 4. 20 μM compound stock in 1×Incubation buffer with 10% DMSO • 5. 25 mM BME stock solution (prepared by diluting the BME stock in Milli Q water)
CypA 1-165 (final concentration 5 μM), test compound (final concentration 2 μM) and G12C-GMPNP (final concentration 0.5 μM) were incubated in the incubation buffer ([…]) for the requisite amount of time at room temperature. The samples were quenched with formic acid, final concentration 0.5%. 10 μL aliquots were injected to TOF-MS.
Sequence of Addition for a Final Incubation Volume of 50 μL • 1. 5 μL 10×incubation buffer • 2. 28 ul H2O • 3. 2 μL from 25 mM BME stock • 4. 5 μL CypA at 50 uM • 5. 5 μL from 5 μM G12C-GMPNP • 6. 5 μL compound from 20 μM compound stock
LC-MS is performed on an Agilent 6230 TOF-LC mass spectrometer equipped with an electrospray probe operated in positive ionization mode. 10 μL samples are injected on a Sepax Bio-C4, 300 Å, 2.1×100 mm column. The mobile phase is 0.1% (vol/vol) formic acid and 0.1% 1 mM ammonium formate in 95% water, 4.8% acetonitrile (A) and 0.1% (vol/vol) formic acid and 0.1% 1 mM ammonium formate in 95% acetonitrile and 4.8% water (B). […]

[2] = tested on: pERK in H358 cells; experiment: pERK inhibition in H358 cells; settings: read-out: Cellular pERK inhibition, 4 hours treatment
In short: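 Human lung cancer H358 cells in RPMI/10% FBS were exposed to compound or DMSO for 4 h. Fixed and permeabilized cells were stained overnight at 4 C with anti-phospho-ERK1/2 (Thr202/Tyr204). Near-infrared imaging read the pERK signal at 800 nm, with DRAQ5 at 700 nm.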

Row | Compound | % Crosslinking with KRAS-G12C-GTP in presence of CYPA, 5 min incubation [1] [%] | IC50 [2] [µM]
1 | CC(C)[C@@H](C(=O)N[C@H]1Cc2cc(O)cc(c2)-c2ccc3c(c2)N(C[C@H](C)COC(=O)[C@@H]2CCCN(N2)C1=O)CC3(C)/C=C/C#N)N(C)C(=O)C1CN(C(=O)CCl)C1 (single isomer, unassigned) [221] | 28 | < 1
2 | CC(C)[C@@H](C(=O)N[C@H]1Cc2cc(O)cc(c2)-c2ccc3c(c2)n(c(=O)n3C2CC2)C[C@H](C)COC(=O)[C@@H]2CCCN(N2)C1=O)N(C)C(=O)C1CN(C(=O)CCl)C1 | 62 | 1 to 10
